# What follows is the remainder of the data, with few or none of the hits.
# Test system: Escherichia coli K-12 BW25113
# Experiment: relative growth (OD600 normalised to plate interquartile mean) (fraction); higher = less growth inhibition, active = 0.2 or less
# Details: 50 µM; LB; incubation time: overnight (16-24 h)
# 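Further: Wild-type cells incubated without shaking, value is the mean of two biological replicates.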
row,Compound,relative growth
1,CC[C@H](C)[C@H](NC(=O)[C@H](CCC(=O)O)NC(=O)[C@H](CCC(=O)O)NC(=O)[C@H](Cc1ccccc1)NC(=O)[C@H](CC(=O)O)NC(=O)CNC(=O)[C@H](CC(N)=O)NC(=O)CNC(=O)CNC(=O)CNC(=O)CNC(=O)[C@@H]1CCCN1C(=O)[C@H](CCCNC(=N)N)NC(=O)[C@@H]1CCCN1C(=O)[C@H](N)Cc1ccccc1)C(=O)N1CCC[C@H]1C(=O)N[C@@H](CCC(=O)O)C(=O)N[C@@H](CCC(=O)O)C(=O)N[C@@H](Cc1ccc(O)cc1)C(=O)N[C@@H](CC(C)C)C(=O)O,inactive: 0.992

# From the supplement of paper PMC9446081
